Test [1] addresses Monoglyceride lipase (Rattus norvegicus) (UniProt Q8R431). As to the kind of experiment: Inhibition of MGL in rat cerebellum cytosolic fractions assessed as [3H]2-oleoylglycerol hydrolysis at 100 uM. It counts as tissue-based.
Test [2] shares this target. As to the kind of experiment: Inhibition of MGL in rat cerebellum membrane fractions assessed as [3H]2-oleoylglycerol hydrolysis at 100 uM. It counts as cell membranes.
Test [3] shares this target. As to the kind of experiment: (§1) Inhibition of MGL in rat cerebellum cytosolic fractions assessed as [3H]2-oleoylglycerol hydrolysis. The test is classed as tissue-based.
For the next test, the target named is Monoglyceride lipase (Rattus norvegicus, UniProt Q8R431). Described as §1. The test is classed as tissue-based.

The chains behind the UniProt entries cited, without tags or fusion partners.
UniProt Q8R431, whole entry: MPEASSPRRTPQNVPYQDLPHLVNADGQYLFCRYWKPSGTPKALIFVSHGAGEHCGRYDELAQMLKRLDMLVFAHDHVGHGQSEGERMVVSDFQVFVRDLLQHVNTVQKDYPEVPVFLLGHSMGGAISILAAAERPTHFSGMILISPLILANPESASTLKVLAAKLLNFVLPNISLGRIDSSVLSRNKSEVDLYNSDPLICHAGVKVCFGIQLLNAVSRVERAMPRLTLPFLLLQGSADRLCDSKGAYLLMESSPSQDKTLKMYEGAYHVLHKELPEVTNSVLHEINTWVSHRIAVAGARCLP

The structures appear in SMILES notation.

On to `CCCCC/C=C\C/C=C\C/C=C\C/C=C\CCCC(=O)OC[C@H]1CO1`, for which the inhibition (usually the change of the read-out against control, counted positive when it falls) in test [1] came to 68%; in test [2] it was 43%.

Turning to `CCCCC/C=C\C/C=C\C/C=C\C/C=C\CCCC(=O)OC[C@@H]1CO1`, the inhibition worked out at 69% in test [1] and 47% in test [2].

In the case of `CCCCC/C=C\C/C=C\C/C=C\C/C=C\CCCC(=O)OCC1CO1` (racemic), the pI50 (-log I50, M) in test [3] was 5.35. For the same molecule, at Monoglyceride lipase, the IC50 (usually the concentration needed to halve the response being measured) is 4.5 µM.

Values taken from ChEMBL document CHEMBL1148794, “Structure-activity relationship of a series of inhibitors of monoacylglycerol hydrolysis--comparison with effects upon fatty acid amide hydrolase” (J Med Chem, 2007).
